{"source": "patent US8338486B2", "about": "“Methods for the treatment of CNS-related conditions” (Adamas Pharmaceuticals, Inc., priority 2004, dated 2012)", "origin": "cited, not measured here", "details": "humans; cited from earlier work"}
{"smiles": "CCN(C)C(=O)Oc1cccc([C@H](C)N(C)C)c1", "note": "[EXELON ®/Rivastigmine]", "values": [{"measurement": "Human PK T½", "result": 1.5, "unit": "h"}]}
